Test results: paper PMC7180491, “Synthesis and Biological Evaluation of Novel (thio)semicarbazone-Based Benzimidazoles as Antiviral Agents against Human Respiratory Viruses” (Molecules, 2020)

Experiments:
Vero cells = test: Cytotoxicity in Vero cells, MTS cell viability assay; settings: read-out: CC50 Vero
Hep-2 cells = test: Cytotoxicity in Hep-2 cells, MTS cell viability assay; settings: read-out: CC50 Hep-2
HEL cells = test: Cytotoxicity in HEL cells, MTS cell viability assay; settings: read-out: CC50 HEL
MDCK cells = test: Cytotoxicity in MDCK cells, MTS cell viability assay; settings: read-out: CC50 MDCK

CCN(CC)CCn1c(Cn2nc3ccccc3n2)nc2cc(C(C)=NN)ccc21
CC50 (Vero cells): > 100 µM | CC50 (Hep-2 cells): > 100 µM | CC50 (HEL cells): > 100 µM | CC50 (MDCK cells): 33 µM

Some compounds may have been tested in ways that are not shown here.
